According to patent US10471030B2, “Immunomodulatory and differentiating function selective retinoid and rexinoid compounds in combination with immune modulators for cancer immunotherapy” (Io Therapeutics, Inc., priority 2017, dated 2019):

System: CYP26A1
Experiment: stromal CYP26A1 expression in BM stromal cells (qRT-PCR)
Assay type: cell-based
Settings: soluble factors tested
Method: For Transwell experiments, 6-well plates were coated with 0.1% gelatin in PBS for 30 min at 37° C. The gelatin solution was removed, and the stromal cells were cultured overnight in FBMD1 media at a density of 10×10^4 cells/well in 2 ml of media to obtain a confluent monolayer. At that time, Transwell inserts (Corning) were placed over the stroma cultures, and MM cell lines (1×10^6 in 1 ml) were seeded in the Transwell for 24 hr at 37° C. Following this incubation, Transwell and MM cells were removed, and stromal cells were detached from the wells and analyzed by qRT-PCR for CYP26 expression.
Total RNA was extracted using the RNeasy Mini Kit (QIAGEN) according to the manufacturer's instructions. cDNA was synthesized by reverse transcription using the iScript cDNA Synthesis Kit (Bio-Rad). qRT-PCR was performed with iTaq SYBR Green Supermix (Bio-Rad) using sequence specific primers. Gene expression was normalized to GAPDH, and relative quantification was calculated using ΔΔCt. All experiments were performed in duplicate and run on the Bio-Rad CFX96 machine.
Thus, it was determined whether MM cells reinforce a protective microenvironment by strengthening the ability of BM stroma to inactivate retinoids. Stromal CYP26 expression was analyzed by qRT-PCR in BM mesenchymal cells following a 24-hr coculture with MM cells. […]

B1: IL-3: cytokine, soluble factor tested (protein, UniProt P08700 20-152, looked up)
Interleukin-3: APMTQTTPLKTSWVNCSNMIDEIITHLKQPPLPLLDFNNLNGEDQDILMENNLRRPNLEAFNRAVKSLQNASAIESILKNLLPCLPLATAAPTRHPIHIKDGDWNEFRRKLTFYLKTLENAQAQQTTLSLAIF
- CYP26A1 expression on BM stromal cells: no significant effects
